Screening results as filed in PubChem BioAssay.
dFosB act = enhances mouse delta FosB homodimer DNA binding; P13346; purified delta FosB, TAMRA-CDK5 oligo fluorescence polarization; percent of positive-control signal above neutral wells; activation, % at 25 µM; actives 0.99% (n = 340,000);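 active = mean activation above about 17%, with every replicate also reaching it, limit read from the data, passing the limit was not always enough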
UUG fidelity = yeast start codon fidelity modulation; activity score, % at 18.7 µM; actives 0.13% (n = 350,000); S. cerevisiae UUG-firefly luciferase reporter, luminescence/redox ratio; AID 602363;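 active means replicate mean at a twofold rise or more, about +100% in these data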;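 further: firefly luciferase made from a UUG start codon reports start codon fidelity; reporter light over untreated wells divided by growth signal over untreated wells; some hits fall short of that in this replicate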
CAL PDZ FP-1 = inhibitors of human CAL PDZ peptide binding; Q9HD26; purified CAL PDZ, TMR-peptide fluorescence polarization, 1 h; inhibition, % at 20 µM; actives 0.02% (n = 330,000); AID 504414;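 active = highest replicate inhibition of at least 40%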;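 note: plate controls were DMSO neutral control wells for no effect and unlabeled competitor peptide control wells for full effect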
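System: purified tagged CAL PDZ domain construct (CerCALP). Schedule: 1 h incubation at room temperature before polarization reading. Medium: 25 mM sodium phosphate pH 7.4, 150 mM NaCl, TCEP, IgG, Thesit. Read-out: percent inhibition from loss of millipolarization. Measured by: FP readout, S and P plane fluorescence. Probe or stimulus: fluorescent TMR peptide probe.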
Dyrk1A ADPGlo = inhibitors of rat Dyrk1A kinase; ADP-Glo luminescence, NFATc1 peptide; inhibition, % at 12.5 µM; actives 0.43% (n = 310,000); in the data active = inhibition above about 50%;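 note: plate controls were vehicle with enzyme for no effect and no enzyme for full effect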
CDK5 inh = inhibitors of human CDK5/p35 kinase; AID 488839; Recombinant CDK5/p35, ADP-Glo luminescence, 60 min; inhibition, % at 10 µM; Q00535+Q15078; actives 0.01% (n = 330,000);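 active = highest replicate inhibition of at least 50% and at least 75% of replicates reaching 50%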;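 note: plate controls were DMSO neutral control for no effect and GW8510 at 10 µM for full effect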
CAL PDZ FP-2 = blocks peptide binding to the human CAL PDZ domain; Q9HD26; purified CAL PDZ, TMR-peptide fluorescence polarization, 1 h; inhibition, % at 24.9 µM; actives 0.92% (n = 300,000); AID 602252;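 active = mean inhibition of at least 30% with at least half of replicates also reaching 30%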;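 note: 0% = DMSO neutral control and 100% = excess unlabeled competitor peptide PRC23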
* marks the source's active call; other numbers are inactive results. An excerpt weighted towards active compounds, which were near 1.7% of everything screened.

What do the screens show for `O=C(CNC(=O)Cc1ccccc1)N=Nc1c(O)n(Cc2ccc3c(c2)OCO3)c2ccccc12`?
dFosB act: 20*; UUG fidelity: -35; CAL PDZ FP-1: -1; Dyrk1A ADPGlo: 9; CDK5 inh: -6; CAL PDZ FP-2: 4

Results for COc1ccc(C(=O)NCC(=O)N=Nc2c(O)n(Cc3ccccc3)c3ccccc23)cc1OC ?
dFosB act: -10; CAL PDZ FP-1: -3; Dyrk1A ADPGlo: -4; CDK5 inh: -2; CAL PDZ FP-2: -2

Results for COc1ccc(CN(C)C[C@@H]2OCCCC[C@@H](C)Oc3ccc(NS(=O)(=O)c4c(C)noc4C)cc3C(=O)N([C@H](C)CO)C[C@@H]2C)cc1 ?
UUG fidelity: -11

Results for C[C@@H]1CN([C@@H](C)CO)S(=O)(=O)c2ccc(C#CC(C)(C)O)cc2O[C@@H]1CN(C)C(=O)C1CCCCC1 ?
UUG fidelity: 6

How did CN1C(=O)c2cc(NC(=O)c3ccc(F)cc3)ccc2OC[C@@H]2O[C@H](CC(=O)NCC3CC3)CC[C@@H]21 do in these assays?
UUG fidelity: -6

What do the screens show for `O=C1C=C(c2ccccc2)C(c2ccccc2)C1` (configuration not stated)?
dFosB act: -8; UUG fidelity: -3; CAL PDZ FP-1: 48*; Dyrk1A ADPGlo: 3; CDK5 inh: -1

Results for CN(C[C@H]1[C@@H](c2ccccc2)[C@H](CO)N1Cc1ccccn1)S(C)(=O)=O ?
UUG fidelity: -10

How did C[C@H](CO)N1C[C@H](C)[C@@H](CN(C)S(=O)(=O)c2cccs2)Oc2ccc(NC(=O)Cc3ccccc3)cc2CC1=O do in these assays?
UUG fidelity: 18

What do the screens show for `COCC#Cc1ccc([C@@H]2[C@H](CO)N3CCCCN(S(=O)(=O)c4ccccc4F)C[C@@H]23)cc1`?
UUG fidelity: -4

How did COc1ccc(C(=O)NCC(=O)OCC(=O)Nc2cc([N+](=O)[O-])ccc2F)cc1 do in these assays?
dFosB act: -16; UUG fidelity: -15; CAL PDZ FP-1: 9; Dyrk1A ADPGlo: -5; CDK5 inh: 1; CAL PDZ FP-2: active

What do the screens show for `COc1ccc(C(=O)NCC(=O)OCC(=O)Nc2sccc2C#N)cc1OC`?
dFosB act: -6; CAL PDZ FP-1: 0; Dyrk1A ADPGlo: 7; CDK5 inh: -3; CAL PDZ FP-2: 61*

Results for CC(C)=CC(=O)OCC(=O)Nc1cc([N+](=O)[O-])ccc1F ?
dFosB act: 4; CAL PDZ FP-1: 0; Dyrk1A ADPGlo: 0; CDK5 inh: 0; CAL PDZ FP-2: -3

Results for COCCN(C(=O)c1ccco1)c1nnc(-c2ccc(F)cc2)s1 ?
dFosB act: -19; UUG fidelity: 4; CAL PDZ FP-1: -2; Dyrk1A ADPGlo: 0; CDK5 inh: 2; CAL PDZ FP-2: 40*

Results for CC(C)c1cn(CC[C@H]2CC[C@@H](NS(=O)(=O)c3ccc(F)cc3)[C@H](CO)O2)nn1 ?
UUG fidelity: 3

How did O=C(NC1CCC1)[C@H]1[C@H](CO)[C@H]2Cn3c(ccc(-c4ccccc4)c3=O)[C@@H]1N2CC1CC1 do in these assays?
UUG fidelity: 0

What do the screens show for `CN1CCC(C2(O)c3ccccc3CSc3sccc32)CC1` (configuration not stated)?
dFosB act: 0; UUG fidelity: -18; Dyrk1A ADPGlo: 22; CDK5 inh: 1; CAL PDZ FP-2: 110*

Results for CN1CCC(C2(O)c3ccccc3CCc3ccccc32)CC1 ?
dFosB act: -9; UUG fidelity: -9; CAL PDZ FP-1: 0; Dyrk1A ADPGlo: -1; CDK5 inh: 0; CAL PDZ FP-2: 3

What do the screens show for `O=C(C[C@H]1CC[C@@H](NC(=O)c2ccccc2)[C@H](CO)O1)NCc1ccc(Oc2ccccc2)cc1`?
UUG fidelity: -28

How did Cc1ccc2nc(C)cc(Nc3ccc4c(c3)OCCO4)c2c1 do in these assays?
dFosB act: 31*; UUG fidelity: -21; CAL PDZ FP-1: 0; Dyrk1A ADPGlo: 16; CDK5 inh: 0; CAL PDZ FP-2: -7

What do the screens show for `C[C@@H]1CN([C@H](C)CO)C(=O)c2cc(-c3cncnc3)cnc2O[C@@H]1CN(C)C(=O)Cc1ccccn1`?
UUG fidelity: 4

For convenience, four of the compounds above.
Results for CN1CCC(C2(O)c3ccccc3CCc3ccccc32)CC1 ?
dFosB act: -9; UUG fidelity: -9; CAL PDZ FP-1: 0; Dyrk1A ADPGlo: -1; CDK5 inh: 0; CAL PDZ FP-2: 3

What do the screens show for `O=C(C[C@H]1CC[C@@H](NC(=O)c2ccccc2)[C@H](CO)O1)NCc1ccc(Oc2ccccc2)cc1`?
UUG fidelity: -28

How did Cc1ccc2nc(C)cc(Nc3ccc4c(c3)OCCO4)c2c1 do in these assays?
dFosB act: 31*; UUG fidelity: -21; CAL PDZ FP-1: 0; Dyrk1A ADPGlo: 16; CDK5 inh: 0; CAL PDZ FP-2: -7

What do the screens show for `C[C@@H]1CN([C@H](C)CO)C(=O)c2cc(-c3cncnc3)cnc2O[C@@H]1CN(C)C(=O)Cc1ccccn1`?
UUG fidelity: 4

Continuation.
Results for Cc1ccc(N2CCN(CCCCN3C(=O)C4CCCN4C3=O)CC2)cc1 (configuration not stated) ?
dFosB act: -1; CAL PDZ FP-1: 1; CDK5 inh: 1; CAL PDZ FP-2: 63*

What do the screens show for `Cc1noc(C)c1NC(=O)N(C)C[C@H]1OCCCC[C@@H](C)Oc2ccc(NC(=O)c3ccncc3)cc2C(=O)N([C@@H](C)CO)C[C@@H]1C`?
UUG fidelity: 2

What do the screens show for `C[C@@H]1CCCCO[C@@H](CN(C)C(=O)Nc2ccccc2)[C@H](C)CN([C@H](C)CO)C(=O)c2cc(NS(=O)(=O)c3ccc(F)cc3)ccc2O1`?
UUG fidelity: -5

Results for CCOc1ccc(CN2CCN(Cc3cccn3-c3cccnc3)CC2CCO)cc1 (configuration not stated) ?
dFosB act: -7; CAL PDZ FP-1: -1; Dyrk1A ADPGlo: 0; CDK5 inh: 0; CAL PDZ FP-2: 78*

How did CC(C)C#Cc1cnc2c(c1)C(=O)N([C@@H](C)CO)C[C@H](C)[C@@H](CN(C)C(=O)C1CCC1)O2 do in these assays?
UUG fidelity: 9

Results for O=C(Nc1ccccc1N1CCOCC1)c1ccc(Cl)c(S(=O)(=O)NCc2ccco2)c1 ?
dFosB act: -7; CAL PDZ FP-1: 1; Dyrk1A ADPGlo: 11; CDK5 inh: -6; CAL PDZ FP-2: 91*

Results for CCCCSc1cc(C)nc(N)n1 ?
dFosB act: -8; CAL PDZ FP-1: -3; Dyrk1A ADPGlo: -2; CDK5 inh: 1; CAL PDZ FP-2: 39*

What do the screens show for `Cc1ccc(OCCSc2cc(C)nc(N)n2)cc1`?
dFosB act: -3; UUG fidelity: -18; CAL PDZ FP-1: 0; Dyrk1A ADPGlo: 5; CDK5 inh: -1; CAL PDZ FP-2: -3

How did COc1cc(OC)c(C(=O)Nc2cccc3ccccc23)cc1OC do in these assays?
dFosB act: 15; UUG fidelity: -9; CAL PDZ FP-1: -2; Dyrk1A ADPGlo: 3; CDK5 inh: 0; CAL PDZ FP-2: 33*

How did Cc1cccc2c1-c1sc(C(=O)N3CCCCC3)cc1CO2 do in these assays?
dFosB act: -2; UUG fidelity: 18; CAL PDZ FP-1: -1; Dyrk1A ADPGlo: 10; CDK5 inh: 0

Results for Cc1cccc2c1-c1sc(C(=O)Nc3ccccc3N3CCN(C)CC3)cc1CO2 ?
dFosB act: 26*; UUG fidelity: 6; CAL PDZ FP-1: -3; Dyrk1A ADPGlo: -4; CDK5 inh: 0; CAL PDZ FP-2: -4
